Measured values as given in patent publication US20240190874A1, “SMALL MOLECULE DEGRADERS OF ANDROGEN RECEPTOR” (THE REGENTS OF THE UNIVERSITY OF MICHIGAN, priority 2021, published 2024).

By UniProt entry, the sequences of proteins in these tests, tags left out.
UniProt P10275, whole entry: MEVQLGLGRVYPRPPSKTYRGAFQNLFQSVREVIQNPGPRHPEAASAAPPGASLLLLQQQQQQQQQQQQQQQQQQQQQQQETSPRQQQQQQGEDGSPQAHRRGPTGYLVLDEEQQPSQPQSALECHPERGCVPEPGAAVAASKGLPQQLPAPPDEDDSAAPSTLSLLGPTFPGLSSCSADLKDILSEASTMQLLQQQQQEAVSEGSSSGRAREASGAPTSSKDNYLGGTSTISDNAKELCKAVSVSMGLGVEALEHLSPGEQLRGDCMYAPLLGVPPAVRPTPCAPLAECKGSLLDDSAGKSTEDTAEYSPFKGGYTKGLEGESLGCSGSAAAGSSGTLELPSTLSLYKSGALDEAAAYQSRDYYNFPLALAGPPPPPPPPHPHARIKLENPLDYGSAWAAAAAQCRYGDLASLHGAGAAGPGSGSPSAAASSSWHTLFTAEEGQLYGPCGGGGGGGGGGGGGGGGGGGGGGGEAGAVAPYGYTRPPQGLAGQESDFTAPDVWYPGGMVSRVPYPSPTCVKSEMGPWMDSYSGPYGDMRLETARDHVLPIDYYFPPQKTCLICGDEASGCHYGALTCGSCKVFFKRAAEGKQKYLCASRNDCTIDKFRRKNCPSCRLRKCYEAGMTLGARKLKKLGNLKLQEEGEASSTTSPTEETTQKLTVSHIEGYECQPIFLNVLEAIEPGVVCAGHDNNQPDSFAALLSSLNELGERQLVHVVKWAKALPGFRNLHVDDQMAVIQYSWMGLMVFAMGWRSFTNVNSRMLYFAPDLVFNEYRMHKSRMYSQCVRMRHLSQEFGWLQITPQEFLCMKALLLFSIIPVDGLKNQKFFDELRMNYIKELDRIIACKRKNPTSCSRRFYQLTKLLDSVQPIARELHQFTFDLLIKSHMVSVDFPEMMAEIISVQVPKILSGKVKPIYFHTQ

Molecular target: AR (Homo sapiens, UniProt P10275)
Assay: Degradation of AR in VCaP cells
Description: Biological Assays. LNCaP and VCaP cells used were purchased from American Type Culture Collection (ATCC). LNCaP were grown in RPMI 1640 (Invitrogen) and VCaP cells were grown in DMEM with Glutamax (Invitrogen). All of the cells were supplemented with 10% fetal bovine serum (Invitrogen) at 37° C. in a humidified 5% CO2 incubator.

Question: Which “Degradation of AR in VCaP cells Dmax” value does the source give for C[C@H]1CC2(CCN(c3ccc(C4CCN(CC(=O)N5Cc6cc7c(cc6C5)C(=O)N(C5CCC(=O)NC5=O)C7=O)CC4)cc3)CC2)CN1c1ccc(C#N)c(Cl)c1 (some centres unmarked) here?
Answer: The value was “A (A = >90%)”.

Question: What about the DC50 (read-out: Degradation of AR in VCaP cells DC50) of the same compound?
Answer: Its DC50 is less than 100 nM.
